Earlier results, collected in patent US20160243040A1, “Pharmaceutical Composition with Antiinflammatory Agents and Production Process” (LABORATORIO RAAM DE SAHUAYO, S.A. DE C.V., priority 2013, published 2016).

O=C(O)COC(=O)Cc1ccccc1Nc1c(Cl)cccc1Cl [aceclofenac, Aceclofenac]
average concentration in synovial fluid relative to plasma (225 mg of aceclofenac daily for 6 days): half that of plasma | share of administered dose as metabolites diclofenac and 4-hydroxy-diclofenac (other metabolites besides 4-hydroxi-aceclofenac): 5%
